Reference: PMC12630025, “Characterization and inhibitor sensitivity of ARAF, BRAF, and CRAF kinases [drawing 1]” (The Journal of Biological Chemistry, 2025)
Values joined by “and” are separate entries in the source; they are usually repeats but may differ in a detail not shown here. Equal values may be shown once.

Assays:
[1] = target: T1, CRAF^WT (MEK1:CRAF^WT:14-3-3 dimer complex) (Homo sapiens, UniProt P04049); test: TR-FRET kinase inhibition assay (phosphorylation of biotinylated MEK1), CRAF WT dimer complex; format: biochemical; conditions: four-parameter fit; 200 μM ATP
T1 construct: His6 (N); made in house; host or cells: insect cells (baculovirus)

[2] = target: T2, ARAF^SSDD (MEK1^SASA:ARAF^SSDD-14-3-3ε dimer complex) (Homo sapiens, UniProt P10398, G300S/Y301D/Y302D); test: TR-FRET kinase inhibition assay (phosphorylation of biotinylated MEK1), ARAF dimer complex; format: biochemical; conditions: ARAF^SSDD IC50, 10 nM enzyme, 250 nM MEK1, 200 μM ATP, 40 min preincubation, 30 min reaction
T2 construct: ARAF^274-606, G300S, Y301/302D-14-3-3 ε with N-terminal His6 and StrepII tags; His6 (N); StrepII (N); made in house; host or cells: SF9 insect cells (baculovirus)
T2 sequence (P10398 274-606 G300S/Y301D/Y302D): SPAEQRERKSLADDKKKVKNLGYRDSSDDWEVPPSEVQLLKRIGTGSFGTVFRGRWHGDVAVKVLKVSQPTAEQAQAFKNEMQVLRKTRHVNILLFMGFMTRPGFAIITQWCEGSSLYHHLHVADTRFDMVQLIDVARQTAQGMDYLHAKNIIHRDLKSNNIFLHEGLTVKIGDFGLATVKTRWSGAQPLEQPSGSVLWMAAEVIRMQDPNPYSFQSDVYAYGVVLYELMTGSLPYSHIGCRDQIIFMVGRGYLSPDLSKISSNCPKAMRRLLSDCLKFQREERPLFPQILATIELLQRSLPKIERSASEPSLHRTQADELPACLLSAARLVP

CRAF^WT nH (Hill slope) [1]	Structure (SMILES)	IC50 [2]
−0.8	CN(C)CCOc1ccc(-c2nc(-c3ccncc3)c(-c3ccc4c(c3)CC/C4=N\O)[nH]2)cc1 [SB590885]	
	OCCn1cc(-c2ccc3c(c2)CC/C3=N\O)c(-c2ccncc2)n1 [GDC0879]	> 500 nM and 642 nM
